Test systems include HCT-15 colon; HT29 colon; SNB-75 CNS; SNB-19 CNS; U251 CNS; PC-3 prostate; SK-MEL-5 melanoma; UACC-62 melanoma; LOX IMVI melanoma; SK-MEL-28 melanoma.
Common to all, as to assay: NCI-60 one-dose screen, 48 h (100 = growth as untreated, 0 = no growth, -100 = all killed)
Holding throughout (conditions): 10 µM

Structures are written as SMILES. Values joined by “and” are separate entries in the source; they are usually repeats but may differ in a detail not shown here. Identical values can stand only once. The entries are a selection whose mix differs from that of the whole data set.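 The test compound was applied at a single concentration to cells in 96-well plates for 48 hours, and percent growth was recorded.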 Active and inactive are the calls of the source. The calls were made as follows: active = growth percent below 10; inactive = the rest.

For the compound `N#CC1(Nc2ccccc2)CCN(Cc2ccccc2)CC1`, the growth with HCT-15 colon is inactive: 104%; with HT29 colon, inactive: 106%; in the test with SNB-75 CNS it was inactive: 76.2%; with SNB-19 CNS, inactive: 90.8%; with U251 CNS it was inactive: 103%; with PC-3 prostate it was inactive: 98.5%. The growth in the test with SK-MEL-5 melanoma is inactive: 104%; in the test on UACC-62 melanoma, inactive: 86.8%; with LOX IMVI melanoma, inactive: 99.2%; with SK-MEL-28 melanoma it was inactive: 131%.

As to `Cc1ccc(NC2(C(N)=O)CCNCC2)cc1`, the growth with HCT-15 colon was inactive: 103%; with HT29 colon, inactive: 118%; with SNB-19 CNS, inactive: 94.1%; with U251 CNS, inactive: 101%; in the test on PC-3 prostate, inactive: 98%; with SK-MEL-5 melanoma, inactive: 101%. The growth in the test on UACC-62 melanoma is inactive: 89.8%; in the test on LOX IMVI melanoma, inactive: 100%; in the test with SK-MEL-28 melanoma it was inactive: 108%.

With `O=C(O)c1ccc(N(CCCl)CCCl)cc1`, the growth with HCT-15 colon was inactive: 102%; with HT29 colon, inactive: 97.5%; with SNB-75 CNS, inactive: 104%; in the test on SNB-19 CNS it was inactive: 112%; in the test with U251 CNS it was inactive: 109%; in the test on PC-3 prostate it was inactive: 99.3%. Besides, the growth was inactive: 101% in the test with SK-MEL-5 melanoma, inactive: 106% in the test on UACC-62 melanoma, inactive: 92.9% in the test with LOX IMVI melanoma and inactive: 119% in the test on SK-MEL-28 melanoma.

In the case of `COc1cc(N(CCCl)CCCl)cc(OC)c1OC`, the growth in the test with HCT-15 colon is inactive: 93.2%; in the test with HT29 colon, inactive: 88.3%; in the test with SNB-75 CNS, inactive: 113%; in the test with SNB-19 CNS, inactive: 98.3%; in the test on U251 CNS it was inactive: 80.2%; in the test with PC-3 prostate it was inactive: 72.5%. For the same compound, the growth with SK-MEL-5 melanoma is inactive: 90.7%; in the test with UACC-62 melanoma, inactive: 87.5%; in the test on LOX IMVI melanoma, inactive: 83.7%; in the test on SK-MEL-28 melanoma, inactive: 113%.

For `N#CC(C#N)=Cc1ccc(N(CCCl)CCCl)cc1`, the growth in the test on HCT-15 colon was inactive: 84.4%; with HT29 colon, inactive: 87.1%; in the test with SNB-75 CNS it was inactive: 86.3%; with SNB-19 CNS, inactive: 99.1%; in the test with U251 CNS it was inactive: 81.4%; in the test with PC-3 prostate, inactive: 71.3%. Besides, the growth is inactive: 92.3% with SK-MEL-5 melanoma, inactive: 59.5% with UACC-62 melanoma, inactive: 84.8% with LOX IMVI melanoma and inactive: 108% with SK-MEL-28 melanoma.

As for `COc1ccc(C(=O)O)cc1N(CCCl)CCCl`, the growth is inactive: 106% in the test with HCT-15 colon; inactive: 101% with HT29 colon; inactive: 83.5% with SNB-75 CNS; inactive: 104% with SNB-19 CNS; inactive: 96% in the test with U251 CNS; inactive: 97.8% in the test with PC-3 prostate. Further, the growth with SK-MEL-5 melanoma is inactive: 97.6%; in the test with UACC-62 melanoma it was inactive: 113%; in the test on LOX IMVI melanoma it was inactive: 81.1%; with SK-MEL-28 melanoma, inactive: 113%.

Consider `CCC(C)(C)c1ccc(O)c(CN(CCCl)CCCl)c1`, for which the growth in the test with HCT-15 colon was inactive: 101%; in the test on HT29 colon it was inactive: 110%; with SNB-75 CNS, inactive: 96.1%; in the test with SNB-19 CNS, inactive: 99%; in the test on U251 CNS, inactive: 102%; with PC-3 prostate, inactive: 96.2%. The growth with SK-MEL-5 melanoma is inactive: 105%; in the test with UACC-62 melanoma it was inactive: 103%; in the test with LOX IMVI melanoma it was inactive: 95.5%; in the test on SK-MEL-28 melanoma it was inactive: 109%.

`COc1cc(CN(CCCl)CCCl)cc(OC)c1`: the growth in the test on HCT-15 colon was inactive: 96%; with HT29 colon it was inactive: 100%; in the test on SNB-75 CNS it was inactive: 73.1%; in the test on SNB-19 CNS it was inactive: 105%; in the test on U251 CNS, inactive: 97.1%; in the test on PC-3 prostate it was inactive: 97.2%. The growth in the test with SK-MEL-5 melanoma is inactive: 99.2%; in the test with UACC-62 melanoma, inactive: 97.5%; in the test on LOX IMVI melanoma, inactive: 96.3%; in the test with SK-MEL-28 melanoma it was inactive: 95.4%.

For the compound `COc1c(C)cc(N(CCCl)CCCl)c2ccccc12`, the growth in the test with HCT-15 colon is inactive: 70%; with HT29 colon it was inactive: 65.3%; in the test on SNB-75 CNS, inactive: 60.2%; in the test on SNB-19 CNS, inactive: 59.6%; in the test on U251 CNS it was inactive: 34.8%; in the test with PC-3 prostate it was inactive: 64.9%. Further, the growth is inactive: 77.7% in the test on SK-MEL-5 melanoma, inactive: 63.9% with UACC-62 melanoma, inactive: 38.4% in the test with LOX IMVI melanoma and inactive: 86.4% in the test with SK-MEL-28 melanoma.

For `Cc1ccccc1CN(CCCl)CCCl`, the growth in the test with HCT-15 colon was inactive: 102%; in the test on HT29 colon, inactive: 94.6%; in the test on SNB-75 CNS, inactive: 90.4%; in the test with SNB-19 CNS, inactive: 101%; in the test on U251 CNS it was inactive: 93.3%; with PC-3 prostate, inactive: 95.1%. In addition, the growth was inactive: 81.3% in the test with SK-MEL-5 melanoma, inactive: 97.4% in the test on UACC-62 melanoma, inactive: 79.9% in the test on LOX IMVI melanoma and inactive: 109% in the test with SK-MEL-28 melanoma.

Turning to `NC(=O)C1(Nc2ccccc2)CCNCC1`, the growth was inactive: 103% in the test with HCT-15 colon; inactive: 96.5% with HT29 colon; inactive: 106% in the test with SNB-75 CNS; inactive: 107% with SNB-19 CNS; inactive: 101% with U251 CNS; inactive: 98.5% in the test on PC-3 prostate. Further, the growth is inactive: 93.6% in the test on SK-MEL-5 melanoma, inactive: 98.1% with UACC-62 melanoma, inactive: 101% in the test on LOX IMVI melanoma and inactive: 115% with SK-MEL-28 melanoma.

For `N#CC1(Nc2ccc(Cl)cc2)CCN(Cc2ccccc2)CC1`, the growth in the test with HCT-15 colon is inactive: 45.9%; in the test with HT29 colon it was inactive: 86.9%; in the test with SNB-75 CNS, inactive: 81.7%; in the test with SNB-19 CNS it was inactive: 85.6%; in the test on U251 CNS it was inactive: 74.9%; in the test with PC-3 prostate it was inactive: 65.2%. For the same compound, the growth with SK-MEL-5 melanoma is inactive: 36.2%; in the test with UACC-62 melanoma, active: -0.519%; in the test on LOX IMVI melanoma, inactive: 18%; with SK-MEL-28 melanoma, inactive: 84.7%.

Regarding `ClCCSC(SCCCl)=C(SCCCl)SCCCl`, the growth in the test with HCT-15 colon is inactive: 81.5%; in the test on HT29 colon it was inactive: 100%; with SNB-75 CNS, inactive: 93.6%; with U251 CNS, inactive: 83.6%; in the test with PC-3 prostate it was inactive: 73.2%; in the test with SK-MEL-5 melanoma it was inactive: 88.7%. For the same compound, the results for the growth in the test with UACC-62 melanoma, in the test with LOX IMVI melanoma and in the test with SK-MEL-28 melanoma were inactive: 52.3%, inactive: 57.4% and inactive: 98.3%, respectively.

In the case of `Cn1c(=O)[nH]cc(N(CCCl)CCCl)c1=O`, the growth with HCT-15 colon was inactive: 89.6%; in the test with HT29 colon it was inactive: 91.1%; with SNB-75 CNS it was inactive: 86.3%; with SNB-19 CNS it was inactive: 101%; in the test with U251 CNS, inactive: 73.2%; with PC-3 prostate, inactive: 91.9%. Moreover, the growth was inactive: 97.5% in the test on SK-MEL-5 melanoma, inactive: 86.9% with UACC-62 melanoma, inactive: 67% with LOX IMVI melanoma and inactive: 108% in the test with SK-MEL-28 melanoma.

Turning to `NC(Cc1cccc(N(CCCl)CCCl)c1)C(=O)O` (stereo not drawn), the growth is inactive: 104% and inactive: 101% with HCT-15 colon; inactive: 102% and inactive: 104% with HT29 colon; inactive: 99.7% and inactive: 80% in the test on SNB-75 CNS; inactive: 96% and inactive: 111% with SNB-19 CNS; inactive: 98.1% and inactive: 93.8% in the test with U251 CNS; inactive: 84.8% and inactive: 88.2% in the test on PC-3 prostate. In addition, the growth in the test with SK-MEL-5 melanoma is inactive: 87.5% and inactive: 92.7%; in the test on UACC-62 melanoma it was inactive: 87.7% and inactive: 89.4%; in the test with LOX IMVI melanoma it was inactive: 89% and inactive: 88.9%; in the test with SK-MEL-28 melanoma it was inactive: 107% and inactive: 101%.
